Results as given in PubChem BioAssay AID1117263 (The Scripps Research Institute Molecular Screening Center, 2014).
This is a selection; strong and weak results do not stand in their true shares. Activity calls are given as the source filed them.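 The calls were made as follows: active = mean inhibition of the replicates above the hit cutoff set in the primary screen (cut at about 17% in these data); inactive = the rest.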

Sequences of proteins named here, by UniProt entry; tags and fusion partners are left off.
UniProt Q9HAT2, whole entry: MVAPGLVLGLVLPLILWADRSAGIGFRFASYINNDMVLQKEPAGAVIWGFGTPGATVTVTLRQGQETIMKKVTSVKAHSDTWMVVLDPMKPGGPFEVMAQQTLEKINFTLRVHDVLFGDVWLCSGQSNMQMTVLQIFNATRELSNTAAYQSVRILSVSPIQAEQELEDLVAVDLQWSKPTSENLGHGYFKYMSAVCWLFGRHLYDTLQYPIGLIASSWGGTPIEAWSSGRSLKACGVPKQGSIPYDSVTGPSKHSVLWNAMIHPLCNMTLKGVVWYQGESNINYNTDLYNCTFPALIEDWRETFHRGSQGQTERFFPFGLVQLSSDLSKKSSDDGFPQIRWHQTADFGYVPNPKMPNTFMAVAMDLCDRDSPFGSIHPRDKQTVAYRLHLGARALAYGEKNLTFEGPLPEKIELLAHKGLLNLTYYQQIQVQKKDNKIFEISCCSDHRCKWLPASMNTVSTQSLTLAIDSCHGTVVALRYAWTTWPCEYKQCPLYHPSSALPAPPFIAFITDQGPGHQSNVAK

Target: Sialate O-acetylesterase (Homo sapiens) (UniProt Q9HAT2)
Assay: human SIAE inhibitors, retest, confirmation, biochemical, fluorescence polarization, FP-Rh probe, triplicate (AID 1117263);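 also: 0% = SIAE with DMSO and probe and 100% = probe without SIAE; inhibitors lower polarization as more probe stays unbound to SIAE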
Details: SIAE FP-Rh activity-based probe, at 9.66 µM, stronger effect = higher value

SMILES | inhibition
CCC(c1nnnn1C1CCCC1)N1CCC(n2c(=O)[nH]c3ccccc32)CC1 (stereo unspecified) | inactive: 4.88%
